The results in this text go back to PubChem BioAssay AID1259398 (Fisher Drug Discovery Resource Center, 2018).

By UniProt entry, the sequences of proteins in these tests, tags left out.
UniProt Q8N884, whole entry: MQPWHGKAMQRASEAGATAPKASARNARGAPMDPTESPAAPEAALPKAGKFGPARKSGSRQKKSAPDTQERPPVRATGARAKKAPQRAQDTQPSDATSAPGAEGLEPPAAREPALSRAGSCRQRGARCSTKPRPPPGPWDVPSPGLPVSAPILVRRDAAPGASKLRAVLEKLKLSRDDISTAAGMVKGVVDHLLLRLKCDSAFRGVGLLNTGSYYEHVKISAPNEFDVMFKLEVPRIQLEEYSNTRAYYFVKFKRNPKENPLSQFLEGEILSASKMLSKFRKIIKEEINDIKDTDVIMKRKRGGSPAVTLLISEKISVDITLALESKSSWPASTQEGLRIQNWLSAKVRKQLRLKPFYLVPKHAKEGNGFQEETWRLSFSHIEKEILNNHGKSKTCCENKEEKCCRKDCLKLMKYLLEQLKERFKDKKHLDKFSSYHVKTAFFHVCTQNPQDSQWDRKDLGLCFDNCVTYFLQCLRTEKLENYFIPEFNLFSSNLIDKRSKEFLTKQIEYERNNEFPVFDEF

Where “and” joins values, the source holds several entries; their conditions need not be identical. Equal values may be shown once. Only a part is listed here, and it is no random draw. Some structures show a salt or complex split into parts, the way the source records it. Calls of active or inactive are those of the source. Cut-off read from the data, not from the text of the source: active = inhibition above about 40%; inactive = the rest.

The assay addresses Cyclic GMP-AMP synthase (Homo sapiens) (UniProt Q8N884). Kind of assay: Biochemical Kinase-Glo luminescence primary assay, human cyclic GMP-AMP synthase inhibition (AID 1259398).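 Note: 0% = vehicle reaction and 100% = reaction without DNA for no activity.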 The settings on record: recombinant h-cGAS, ATP depletion, at 12.5 µM, stronger effect = higher value. In general terms: In Kinase-Glo more light means more ATP remaining.
For `CP(=O)(O)OC(c1ccccc1)C(F)(F)C(F)(F)F` (stereo not given), the inhibition was inactive: -9.98%.
In the case of `Cc1cc(C)cc(OP(C)(=O)Nc2cc(Cl)ccc2C)c1` (stereo not given), the inhibition was inactive: -2.97%.
Take `CP(N)(=O)Oc1ccccc1F` (stereo not given): the inhibition was inactive: 2.47%.
As for `CN1CC(=O)N(C)P1(C)=S` (stereo not given), the inhibition is inactive: 1.24%.
As to `O=[N+]([O-])C1([N+](=O)[O-])COCOC1`, the inhibition was inactive: -5.39%.
Consider `CN([N+](=O)[O-])C(Br)([N+](=O)[O-])[N+](=O)[O-]`, for which the inhibition is inactive: 1.76%.
On to `Cc1ccc(NP(C)(=O)Oc2ccc(Cl)cc2)cc1` (stereo not given), for which the inhibition is inactive: -4.25%.
The same measure for `Cn1cc([N+](=O)[O-])nc1[N+](=O)[O-]`: inactive: -0.994%; for `CP(=O)(Nc1cccc(F)c1)Oc1ccc(Cl)cc1` (stereo not given): inactive: -10.4%.
As for `CP(=O)(Nc1ccc(Cl)cc1Cl)Oc1ccccc1` (stereo not given), the inhibition was inactive: -6.51%.
Then `CP(=O)(Nc1ccc(F)cc1)Oc1ccc(Cl)cc1` (stereo not given), with inactive: -2.01%; and `OCCSCCO`, with inactive: -3.9%.
The same measure for `COc1ccc(OP(C)(=O)Nc2ccc(Br)cc2)cc1` (stereo not given): inactive: -10.4%.
With `CP(=O)(Oc1ccc(F)cc1)OC(c1ccccc1)C(F)(F)F` (stereo not given), the inhibition is inactive: -7.92%.
Consider `COc1cccc(C(OP(C)(=O)O)C(F)(F)F)c1` (stereo not given), for which the inhibition was inactive: -0.239%.
Then `CC(C)(C)c1ccc(OP(C)(=O)O)cc1`, with inactive: -1.03%.
Then `CCCCOc1ccc(NP(C)(=O)Oc2ccc(CC)cc2)cc1` (stereo not given), with inactive: -3.8%.
In the case of `CP(=O)(O)OC(c1ccccc1)C(F)(F)F` (stereo not given), the inhibition is inactive: -2.13%.
For `Nc1nonc1N=Nc1nonc1N`, the inhibition is inactive: 3.21%.
`CP(=O)(Nc1ccccc1Br)Oc1ccccc1` (stereo not given): the inhibition was inactive: -4.39% and inactive: -5.97%.
With `CP(=O)(O)OC(c1cccc(Cl)c1)C(F)(F)F` (stereo not given), the inhibition was inactive: 1.59%.
Turning to `CP(=O)(Oc1ccccc1)OC(c1ccccc1)C(F)(F)F` (stereo not given), the inhibition was inactive: -35.9%.
In the case of `COC(=O)NC(c1ccccc1)P(=O)(Cl)Cl` (stereo not given), the inhibition was inactive: -6.07%.
As for `CN(C)CCS`, the inhibition was inactive: -0.591%.
As to `CCOP(C)(=S)SCN(CC(=O)O)C(=O)OC` (stereo not given), the inhibition is inactive: -5.33%.
The same measure for `Cc1cccc(C)c1OP(C)(N)=O` (stereo not given): inactive: -3.76%; for `CP(=O)(Nc1ccc(Br)cc1)Oc1ccccc1` (stereo not given): inactive: -2.71%.
As to `CC(C)(C)c1ccc(OP(C)(N)=O)cc1` (stereo not given), the inhibition was inactive: -1.71%.
Consider `COc1ccc(OP(C)(=O)Nc2cccc(F)c2)cc1` (stereo not given), for which the inhibition is inactive: 0.365%.
For `Cc1cc(C)cc(OP(C)(N)=O)c1` (stereo not given), the inhibition was inactive: -4.63%.
`CCN(C1=NCCCS1)P(O)(=S)CC` (stereo not given): the inhibition is inactive: -2.29%.
Consider `CP(=O)(O)OC(c1cccc(C(F)(F)F)c1)C(F)(F)F` (stereo not given), for which the inhibition is inactive: -3.37%.
For the molecule `Cc1ccc(NP(C)(=O)Oc2ccc(C(C)(C)C)cc2)cc1` (stereo not given), the inhibition is inactive: -5.93%.
Then `Cc1ccc(NP(C)(=O)Oc2ccc(C(C)C)cc2)cc1C` (stereo not given), with inactive: -1.17%; and `CC(=O)N(CCN(C(C)=O)[N+](=O)[O-])[N+](=O)[O-]`, with inactive: -2.15%; and `C/C1=C2N=C(/C=C3N=C(/C(C)=C4\[N-]C(C)(C5N=C1C(C)(CCC(=O)NCC(C)OP(=O)(O)OC1C(CO)OC(n6cnc7cc(C)c(C)cc76)C1O)C5CC(N)=O)C(C)(CC(N)=O)C4CCC(N)=O)C(C)(CC(N)=O)C\3CCC(N)=O)C(C)(C)C/2CCC(N)=O.[C-]#N.[Co+3]` (stereo not given), with inactive: -17.9%.
For the molecule `CP(=O)(Nc1ccc(Br)cc1)Oc1ccc(Cl)cc1` (stereo not given), the inhibition was inactive: -6.66%.
Then `Cc1ccc(Cl)cc1NP(C)(=O)Oc1ccccc1` (stereo not given), with inactive: -6.89%; and `COc1ccc(OP(C)(=O)Nc2ccc(Cl)cc2)cc1` (stereo not given), with inactive: -1.91%; and `Nc1cc([N+](=O)[O-])cc([N+](=O)[O-])c1O`, with inactive: -4.01%.

Broadly, the inhibition is the drop in the measured response relative to a control, in per cent.
